## Measured affinities in a library of Ab-14 light chain variants

Values reported by Li et al. 2023, doi:10.1038/s41467-023-39022-2 (FLAb copy).

Target peptide (SARS-CoV-2 spike, HR2 region): PDVDLGDISGINAS

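Phage display of a naive human antibody library on the peptide gave the parent. Designed CDR sequences, proposed from the first random library and measured here. Their group label is 14L_GP_Gen (GP: Gaussian process model; Gen: genetic algorithm; a sequence that several methods proposed may carry one label only). The assay is AlphaSeq: two haploid yeast populations carry antibody and antigen on their surface. After mating in shaken culture at 30 °C for 16 h, diploids were selected and their barcode pairs sequenced. Read counts were normalised to the haploid input and turned into Kd by a linear fit to BCL2-family pairs of known affinity, for each replicate. Mating was done six times.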

Parent scFv Ab-14: VH joined to VL by the linker GGGGSGGGGSGGGGS. Changes lie in the light chain CDRs alone.
VH: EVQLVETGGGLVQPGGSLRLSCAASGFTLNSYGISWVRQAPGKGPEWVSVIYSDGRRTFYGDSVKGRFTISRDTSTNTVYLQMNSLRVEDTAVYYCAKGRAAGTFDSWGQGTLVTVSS
VL: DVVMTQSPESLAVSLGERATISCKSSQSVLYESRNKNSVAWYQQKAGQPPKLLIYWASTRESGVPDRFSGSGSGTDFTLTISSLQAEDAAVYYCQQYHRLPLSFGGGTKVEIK

Changes read parent residue, position, new residue, counted from the first residue of the VL shown. Scale: log10 of Kd in nM, estimated from mating counts; low values are strong binders. The range of this assay differs from that of the first round, and the authors advise against merging the two. In the paper, a design with two or fewer of six values counts as a poor binder. Of ten entries with the parent sequence, four were seen in most replicates (averages 0.34 to 2.37), three in one and three in none, so single entries are noisy. Background: pairings of all light chain designs with three empty control strains gave a value in 4% of cases (median 2.64, 5th percentile 1.59). Values in that range, when seen in few replicates, are hard to tell from nonspecific mating. For each scFv, signals with the empty controls are counted beside the result, with their mean in brackets.

changes	log10 Kd (nM) by replicate	empty controls
S25L+L30D+S38N+W56H	-0.40 -0.68 -0.76 -0.68 -0.54 -0.56	1 of 18 (2.92)
S25L+L30P+W56G	-0.43 -0.05 -0.26 -0.25 -0.38 -0.04	0 of 18
S25L+V29W+L30E+W56N	-0.05 0.12 -0.01 -0.08 -0.15 0.03	2 of 18 (2.70)
S25L+L30P+W56N+T59Q+S62Q	-0.16 -0.26 -0.20 -0.32 -0.10 -0.04	1 of 18 (1.56)
S25L+S33D+S38N+W56S	-0.68 -0.82 -0.69 -0.72 -0.65 -0.49	0 of 18
S25F+S26P+V29Q+W56N+T59Q	0.37 0.37 0.65 0.14 0.42 0.49	1 of 18 (4.16)
S25L+Q27M+S38A+W56E	0.05 -0.22 -0.13 -0.31 -0.19 -0.19	1 of 18 (2.76)
S25L+Q27E+W56H	0.29 0.17 0.27 -0.06 0.00 0.01	0 of 18
S25L+S26P+W56E+S62M	0.29 0.47 -0.12 0.14 -0.08 0.13	0 of 18
S25L+S38N+W56S+E61C	-0.51 -0.23 -0.39 -0.01 -0.61 -0.58	0 of 18
S25L+S26P+V29E+W56N+T59Y	-0.18 -0.19 -0.50 -0.31 -0.12 0.01	1 of 18 (2.86)
S25L+N35A+W56G+T59Q	-0.27 -0.37 -0.43 -0.55 -0.49 -0.25	2 of 18 (2.76)
S25V+S33Q+W56N+E61L	0.21 0.30 0.06 0.05 0.33 0.38	4 of 18 (2.96)
S25L+S26Q+W56N+T59Q+Q96D	0.05 -0.32 -0.42 -0.40 -0.27 -0.28	0 of 18
S26P+L30D+W56D	0.29 -0.05 -0.11 -0.21 -0.17 0.08	0 of 18
S25F+V29D+W56E	0.26 0.26 0.16 0.31 0.12 0.54	0 of 18
S25L+W56N+T59Y	-0.15 -0.10 -0.16 -0.38 -0.43 0.00	1 of 18 (2.02)
S25L+S26R+V29Q+W56N+T59Q	0.34 0.44 0.23 0.37 0.66 0.45	1 of 18 (1.66)
S25L+S26Q+W56E+E61L	0.02 0.01 -0.11 -0.20 -0.21 -0.05	0 of 18
S25V+V29W+L30P+W56N	-0.08 -0.11 0.00 -0.21 -0.24 0.01	4 of 18 (2.46)
S25L+V29E+W56Q+Q96D	0.61 0.38 0.92 0.53 0.70 0.77	2 of 18 (2.69)
S25V+V29E+W56E+S62D	0.58 0.56 0.82 0.87 0.22 0.67	0 of 18
S25L+K36Q+W56N+E61L	0.04 -0.21 -0.28 -0.17 -0.18 -0.16	2 of 18 (3.40)
S25L+V29M+L30W+W56N	-0.16 -0.33 -0.30 -0.37 -0.38 -0.21	2 of 18 (2.79)
S25L+L30D+W56N+Q96D	0.89 0.59 0.83 1.20 0.53 0.96	0 of 18
S25L+S26Y+W56N+S62V	0.05 0.01 0.04 -0.16 -0.15 -0.12	0 of 18
S25L+S26P+W56S+T59Q	-0.55 -0.64 -0.74 -0.38 -0.60 -0.42	0 of 18
S25L+V29E+W56N+E61C	-0.04 -0.03 -0.18 -0.20 -0.41 0.18	1 of 18 (2.64)
S25L+V29N+W56E	0.44 0.06 0.33 0.19 0.01 0.65	0 of 18
S25V+S26Q+V29W+L30P+W56E	-0.30 -0.43 -0.19 -0.55 -0.59 -0.29	4 of 18 (2.88)
S25L+S26Q+L30E+N35M+W56N	0.39 0.19 0.17 -0.05 0.01 0.23	1 of 18 (3.52)
S25L+V29H+W56S	-0.12 -0.03 -0.43 -0.42 -0.19 -0.09	1 of 18 (3.21)
S25L+S33M+W56Q	-0.11 0.15 -0.58 -0.07 0.18 -0.05	0 of 18
S25L+V29E+S38N+W56S	-0.39 -0.36 -0.20 -0.25 -0.03 -0.15	1 of 18 (1.66)
S25L+S38N+W56G+S62D	-0.44 -0.45 -0.43 -0.60 -0.52 -0.50	0 of 18
S25L+V29N+N35M+W56N	0.06 0.10 -0.16 -0.03 -0.24 0.21	3 of 18 (3.05)
S25F+S26E+V29Q+W56N+E61M	0.51 0.60 0.45 0.33 0.28 0.34	1 of 18 (2.64)
S25L+V29D+W56N+S62Q	0.05 -0.01 -0.26 -0.36 -0.23 0.06	1 of 18 (2.59)
S25L+V29G+N37W+W56N	0.22 -0.02 -0.27 0.06 -0.28 -0.05	1 of 18 (3.86)
S25L+V29W+W56H+T59Q	0.22 0.09 0.14 -0.03 -0.01 0.24	1 of 18 (2.93)
S25L+V29M+W56D	-0.20 -0.55 -0.59 -0.73 -0.52 -0.42	0 of 18
S25I+S33D+W56N+E61F	-0.30 -0.40 -0.42 -0.50 -0.53 -0.21	0 of 18
K24H+S25L+W56H	0.79 1.15 1.48 1.07 0.74 0.89	0 of 18
S25L+Q27G+V29M+S38A+W56N	-0.18 -0.44 -0.65 -0.76 -0.54 -0.37	0 of 18
S25V+S33E+W56Q+T59Q	0.01 -0.16 -0.07 -0.10 -0.30 0.10	1 of 18 (4.87)
S25L+N37M+W56G	0.09 -0.30 -0.01 -0.39 -0.41 0.22	1 of 18 (2.84)
S25V+S26Q+W56N+E61L	-0.24 -0.30 -0.37 -0.42 -0.15 -0.19	0 of 18
S25L+S26P+L30P+W56S	0.24 0.19 0.16 0.11 0.14 0.29	3 of 18 (3.51)
S25L+W56N+T59Q+S62Q+Q96D	-0.32 -0.24 -0.46 -0.48 -0.36 -0.22	0 of 18
S25L+S33D+W56S	-0.44 -0.35 -0.72 -0.69 -0.50 -0.47	1 of 18 (2.07)
S25L+S26Q+W56D+T59Q	-0.24 -0.21 -0.33 -0.34 -0.35 -0.30	1 of 18 (1.95)